Biological target: T1, full-length B-Catenin (Uniprot ID P35222) (Homo sapiens, UniProt P35222)
T1 construct: 10 nM full-length B-Catenin (Uniprot ID P35222)
Experiment: biochemical
Type: binding
Settings: beta-Catenin FP IC50 (nM), competition fluorescence polarization

By UniProt entry, the sequences of proteins in these tests, tags left out.
UniProt P35222, whole entry: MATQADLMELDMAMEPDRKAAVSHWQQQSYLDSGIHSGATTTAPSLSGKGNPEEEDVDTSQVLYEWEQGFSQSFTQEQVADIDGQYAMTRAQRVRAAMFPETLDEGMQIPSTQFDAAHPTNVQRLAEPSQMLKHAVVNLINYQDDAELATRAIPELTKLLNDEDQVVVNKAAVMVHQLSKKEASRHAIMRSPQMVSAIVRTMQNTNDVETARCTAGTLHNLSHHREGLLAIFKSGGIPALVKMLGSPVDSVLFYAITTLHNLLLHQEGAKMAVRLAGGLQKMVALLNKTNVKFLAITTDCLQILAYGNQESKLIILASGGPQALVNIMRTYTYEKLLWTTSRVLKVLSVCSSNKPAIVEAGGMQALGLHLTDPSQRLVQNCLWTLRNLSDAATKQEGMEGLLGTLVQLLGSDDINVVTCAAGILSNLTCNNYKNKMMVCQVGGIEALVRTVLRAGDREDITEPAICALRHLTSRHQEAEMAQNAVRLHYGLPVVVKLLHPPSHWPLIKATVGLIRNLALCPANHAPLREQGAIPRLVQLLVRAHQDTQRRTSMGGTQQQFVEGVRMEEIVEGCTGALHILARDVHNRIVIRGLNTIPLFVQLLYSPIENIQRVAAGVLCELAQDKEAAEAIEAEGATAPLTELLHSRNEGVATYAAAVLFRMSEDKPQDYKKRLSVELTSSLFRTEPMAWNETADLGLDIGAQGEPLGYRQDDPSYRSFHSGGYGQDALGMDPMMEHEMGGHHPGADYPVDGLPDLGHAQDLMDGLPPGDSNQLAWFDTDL

IC50	Structure (SMILES)
200 to 750 nM	CC(=O)N1CCC[C@]12CC=CCCCC1(CCCC=CCCCOC(=O)N3CC[C@@]4(C3)NC(=O)[C@H](CCCCNC(=O)CC[C@@H](C(=O)N[C@@H](C)C(N)=O)NC(=O)[C@H](Cc3csc5ccccc35)NC(=O)[C@H](Cc3ccsc3)NC4=O)NC(=O)[C@H](Cc3c[nH]nn3)NC(=O)[C@H](C)NC(=O)C(C)(C)NC(=O)[C@H](Cc3cccc(C(=O)O)c3)NC(=O)[C@H](CC(=O)O)NC1=O)NC(=O)[C@H](CC(C)(C)C)NC(=O)[C@H](CC(=O)O)NC2=O (relative stereo) [I-368, Ac-PL3-Asp-Npg-B5-Asp-3COOHF-Aib-Ala-4TriA-Lys*3-PyrS2-3Thi-BztA-GlnR*3-Ala-NH2]
< 50 nM	CC(=O)N1CCC[C@]12CC=CCCCC1(CCCC=CCCCOC(=O)N3CC[C@@]4(C3)NC(=O)[C@H](CCCCNC(=O)CC[C@@H](C(=O)N[C@@H](C)C(N)=O)NC(=O)[C@H](Cc3csc5ccccc35)NC(=O)[C@H](Cc3ccsc3)NC4=O)NC(=O)[C@H](Cc3ccccc3)NC(=O)[C@H](Cc3ccccc3)NC(=O)C(C)(C)NC(=O)[C@H](Cc3cccc(C(=O)O)c3)NC(=O)[C@H](CC(=O)O)NC1=O)NC(=O)[C@H](CC(C)(C)C)NC(=O)[C@H](CC(=O)O)NC2=O (relative stereo) [I-529, Ac-PL3-Asp-Npg-B5-Asp-3COOHF-Aib-Phe-Phe-Lys*3-PyrS2-3Thi-BztA-GlnR*3-Ala-NH2]
> 1000 nM	CC[C@H](C)[C@@H]1NC(=O)[C@H](C)NC(=O)C(C)(C)NC(=O)[C@H](Cc2cccc(C(=O)O)c2)NC(=O)[C@H](CC(=O)O)NC(=O)C2(CCCC=CCCCOC(=O)N3CC[C@@]4(C3)NC(=O)[C@H](CCCCNC(=O)CC[C@@H](C(=O)N[C@@H](C)C(N)=O)NC(=O)[C@H](Cc3csc5ccccc35)NC(=O)[C@H](Cc3ccsc3)NC4=O)NC1=O)CCCC=CC[C@]1(CCCN1C(C)=O)C(=O)N[C@@H](CC(=O)O)C(=O)N[C@@H](CC(C)(C)C)C(=O)N2 (relative stereo) [I-361, Ac-PL3-Asp-Npg-B5-Asp-3COOHF-Aib-Ala-Ile-Lys*3-PyrS2-3Thi-BztA-GlnR*3-Ala-NH2]
< 50 nM	CC(=O)N1CCC[C@]12CC=CCCCC1(CCCC=CCCCOC(=O)N3CC[C@@]4(C3)NC(=O)[C@H](CCCCNC(=O)CC[C@@H](C(=O)N[C@H](CC(C)C)C(=O)N[C@@H](CO)C(N)=O)NC(=O)[C@H](Cc3csc5ccccc35)NC(=O)[C@H](Cc3ccsc3)NC4=O)NC(=O)[C@H](Cc3ccccc3)NC(=O)[C@H](C)NC(=O)C(C)(C)NC(=O)[C@H](Cc3cccc(C(=O)O)c3)NC(=O)[C@H](CC(=O)O)NC1=O)NC(=O)[C@H](CC(C)(C)C)NC(=O)[C@H](CC(=O)O)NC2=O (relative stereo) [I-463, Ac-PL3-Asp-Npg-B5-Asp-3COOHF-Aib-Ala-Phe-Lys*3-PyrS2-3Thi-BztA-GlnR*3-dLeu-Ser-NH2]
200 to 750 nM	CCCCCCCC[C@@H]1NC(=O)[C@]23CCN(C2)C(=O)OCCCC=CCCCC2(CCCC=CC[C@]4(CCCN4C(C)=O)C(=O)N[C@@H](CC(=O)O)C(=O)N[C@@H](CC(C)(C)C)C(=O)N2)C(=O)N[C@@H](CC(=O)O)C(=O)N[C@@H](Cc2cccc(C(=O)O)c2)C(=O)NC(C)(C)C(=O)N[C@@H](C)C(=O)N[C@@H](Cc2ccccc2)C(=O)N[C@@H](CCCCNC(=O)CC[C@@H](C(=O)N[C@@H](C)C(N)=O)NC(=O)[C@H](Cc2csc4ccccc24)NC1=O)C(=O)N3 (relative stereo) [I-540, Ac-PL3-Asp-Npg-B5-Asp-3COOHF-Aib-Ala-Phe-Lys*3-PyrS2-OctG-BztA-GlnR*3-Ala-NH2]

The next lines start with the compound.

Structure (SMILES)	IC50
CC(=O)N1CCC[C@]12CCCCCCC1(CCCCCCCCOC(=O)N3CC[C@@]4(C3)NC(=O)[C@H](CCC(=O)NCCCC[C@@H](C(N)=O)NC(=O)[C@H](Cc3csc5ccccc35)NC(=O)[C@H](Cc3ccccc3)NC4=O)NC(=O)[C@H](Cc3ccccc3)NC(=O)[C@H](C)NC(=O)[C@H](CCCCNC(C)C)NC(=O)[C@H]([C@@H](C)O)NC(=O)[C@H](CC(=O)O)NC1=O)NC(=O)[C@H](CC1CCCCC1)NC(=O)[C@H](CC(N)=O)NC2=O (relative stereo) [I-156, Ac-PL3-Asn-Cha-B5-Asp-Thr-iPrLys-Ala-Phe-GlnR*3-PyrS2-Phe-BztA-Lys*3-NH2]	> 1000 nM
CC(=O)N1CCC[C@]12CC=CCCCC1(CCCC=CCCCOC(=O)N3CC[C@@](C(=O)N[C@@H](Cc4ccsc4)C(=O)N[C@@H](Cc4csc5ccccc45)C(=O)N[C@@H](CCC(N)=O)C(N)=O)(C3)NC(=O)[C@@H]3CCCCn4cc(nn4)C[C@H](NC(=O)[C@H](Cc4cccc(C(=O)O)c4)NC(=O)[C@H](CC(=O)O)NC1=O)C(=O)N[C@@H](C)C(=O)N[C@@H](Cc1ccccc1)C(=O)N3)NC(=O)[C@H](CC(C)(C)C)NC(=O)[C@H](CC(=O)O)NC2=O (stereo partly drawn) [I-27, Ac-PL3-Asp-Npg-B5-Asp-3COOHF-sAla*3-Ala-Phe-TriAzLys*3-PyrS2-3Thi-BztA-Gln-NH2]	200 to 750 nM
CC(=O)N1CCC[C@]12CC=CCCCC1(CCCC=CCCCOC(=O)N3CC[C@@]4(C3)NC(=O)[C@H](CCCCNC(=O)CC[C@@H](C(=O)N[C@@H](C)C(N)=O)NC(=O)[C@H](Cc3csc5ccccc35)NC(=O)[C@H](Cc3ccsc3)NC4=O)NC(=O)[C@H](Cc3ccccc3)NC(=O)[C@H](CCC(=O)O)NC(=O)C(C)(C)NC(=O)[C@H](Cc3cccc(C(=O)O)c3)NC(=O)[C@H](CC(=O)O)NC1=O)NC(=O)[C@H](CC(C)(C)C)NC(=O)[C@H](CC(=O)O)NC2=O (relative stereo) [I-523, Ac-PL3-Asp-Npg-B5-Asp-3COOHF-Aib-Glu-Phe-Lys*3-PyrS2-3Thi-BztA-GlnR*3-Ala-NH2]	< 50 nM
CC(=O)N1CCC[C@]12CC=CCCCC1(CCCC=CCCCOC(=O)N3CC[C@@]4(C3)NC(=O)[C@H](CCCCNC(=O)CC[C@@H](C(=O)N[C@@H](C)C(N)=O)NC(=O)[C@H](Cc3ccc(Cl)c(Cl)c3)NC(=O)[C@H](Cc3ccccc3C(F)(F)F)NC4=O)NC(=O)[C@H](Cc3ccccc3)NC(=O)[C@H](C)NC(=O)C(C)(C)NC(=O)[C@H](Cc3cccc(C(=O)O)c3)NC(=O)[C@H](CC(=O)O)NC1=O)NC(=O)[C@H](CC(C)(C)C)NC(=O)[C@H](CC(=O)O)NC2=O (relative stereo) [I-327, Ac-PL3-Asp-Npg-B5-Asp-3COOHF-Aib-Ala-Phe-Lys*3-PyrS2-2F3MeF-34ClF-GlnR*3-Ala-NH2]	< 50 nM
CC(=O)N1CCC[C@]12CC=CCCCC1(CCCC=CCCCOC(=O)N3CC[C@@]4(C3)NC(=O)[C@H](CCCCNC(=O)CC[C@@H](C(=O)N[C@@H](C)C(N)=O)NC(=O)[C@H](Cc3csc5ccccc35)NC(=O)[C@H](Cc3ccsc3)NC4=O)NC(=O)[C@H](Cc3ccc(F)cc3)NC(=O)[C@H](C)NC(=O)C(C)(C)NC(=O)[C@H](Cc3cccc(C(=O)O)c3)NC(=O)[C@H](CC(=O)O)NC1=O)NC(=O)[C@H](CC(C)(C)C)NC(=O)[C@H](CC(=O)O)NC2=O (single isomer, unassigned) [I-568, Ac-PL3-Asp-Npg-B5-Asp-3COOHF-Aib-Ala-4FF-Lys*3-PyrS2-3Thi-BztA-GlnR*3-Ala-NH2]	< 50 nM
CC(=O)N1CCC[C@]12CC=CCCCC1(CCCC=CCCCOC(=O)N3CC[C@@]4(C3)NC(=O)[C@H](CCCCNC(=O)CC[C@@H](C(=O)N[C@@H](C)C(N)=O)NC(=O)[C@H](Cc3csc5ccccc35)NC(=O)[C@H](Cc3ccccc3C(F)(F)F)NC4=O)NC(=O)[C@H](Cc3ccccc3)NC(=O)[C@H](C)NC(=O)C(C)(C)NC(=O)[C@H](Cc3cccc(C(=O)O)c3)NC(=O)[C@H]([C@H](C)C(=O)O)NC1=O)NC(=O)[C@H](CC(C)(C)C)NC(=O)[C@H](CC(=O)O)NC2=O (relative stereo) [I-286, Ac-PL3-Asp-Npg-B5-SbMeAsp-3COOHF-Aib-Ala-Phe-Lys*3-PyrS2-2F3MeF-BztA-GlnR*3-Ala-NH2]	< 50 nM
CC(=O)N1CCC[C@]12CC=CCCCC1(CCCC=CCCCOC(=O)N3CC[C@@]4(C3)NC(=O)[C@H](CCCCNC(=O)CC[C@@H](C(=O)N[C@@H](C)C(N)=O)NC(=O)[C@H](Cc3csc5ccccc35)NC(=O)[C@H](Cc3ccsc3)NC4=O)NC(=O)[C@H](Cc3ccccc3)NC(=O)[C@H](C)NC(=O)[C@H](CCC(=O)N3CCOCC3)NC(=O)[C@H](Cc3cccc(C(=O)O)c3)NC(=O)[C@H](CC(=O)O)NC1=O)NC(=O)[C@H](CC(C)(C)C)NC(=O)[C@H]([C@H](C)O)NC2=O (relative stereo) [I-325, Ac-PL3-aThr-Npg-B5-Asp-3COOHF-MorphGln-Ala-Phe-Lys*3-PyrS2-3Thi-BztA-GlnR*3-Ala-NH2]	200 to 750 nM
CC(=O)N1CCC[C@]12CC=CCCCC1(CCCC=CCCCOC(=O)N3CC[C@@]4(C3)NC(=O)[C@H](CCCCNC(=O)CC[C@@H](C(=O)N[C@@H](C)C(N)=O)NC(=O)[C@H](Cc3csc5ccccc35)NC(=O)[C@H](Cc3ccsc3)NC4=O)NC(=O)[C@H](CCC(N)=O)NC(=O)[C@H](C)NC(=O)C(C)(C)NC(=O)[C@H](Cc3cccc(C(=O)O)c3)NC(=O)[C@H](CC(=O)O)NC1=O)NC(=O)[C@H](CC(C)(C)C)NC(=O)[C@H](CC(=O)O)NC2=O (relative stereo) [I-374, Ac-PL3-Asp-Npg-B5-Asp-3COOHF-Aib-Ala-Gln-Lys*3-PyrS2-3Thi-BztA-GlnR*3-Ala-NH2]	200 to 750 nM
CC(=O)N1CCC[C@]12CCCCCCC1(CCCCCCCCOC(=O)N3CC[C@@]4(C3)NC(=O)[C@H](CCC(=O)NCCCC[C@@H](C(N)=O)NC(=O)[C@H](Cc3csc5ccccc35)NC(=O)[C@H](Cc3ccccc3)NC4=O)NC(=O)[C@H](Cc3ccccc3)NC(=O)[C@H](C)NC(=O)[C@H](CCO)NC(=O)[C@H]([C@@H](C)O)NC(=O)[C@H](CC(=O)O)NC1=O)NC(=O)[C@H](CC1CCCCC1)NC(=O)[C@H](CC(N)=O)NC2=O (relative stereo) [I-155, Ac-PL3-Asn-Cha-B5-Asp-Thr-Hse-Ala-Phe-GlnR*3-PyrS2-Phe-BztA-Lys*3-NH2]	> 1000 nM
CC(=O)N1CCC[C@]12CC=CCCCC1(CCCC=CCCCOC(=O)N3CC[C@@]4(C3)NC(=O)[C@H](CCCCNC(=O)CC[C@@H](C(=O)N[C@@H](CC(C)C)C(=O)N[C@@H](CO)C(N)=O)NC(=O)[C@H](Cc3csc5ccccc35)NC(=O)[C@H](Cc3ccccc3C(F)(F)F)NC4=O)NC(=O)[C@H](Cc3ccccc3)NC(=O)[C@H](C)NC(=O)[C@H](C)NC(=O)[C@H](Cc3cccc(C(=O)O)c3)NC(=O)[C@H](CC(=O)O)NC1=O)NC(=O)[C@H](CC(C)(C)C)NC(=O)[C@H](CCO)NC2=O (relative stereo) [I-145, Ac-PL3-Hse-Npg-B5-Asp-3COOHF-Ala-Ala-Phe-Lys*3-PyrS2-2F3MeF-BztA-GlnR*3-Leu-Ser-NH2]	> 1000 nM

Source: patent US20240360179A1, “STAPLED PEPTIDES AND METHODS THEREOF” (FOG PHARMACEUTICALS, INC., priority 2021, published 2024)
